In ChEMBL document CHEMBL1155779, “Characterization of the PON1 active site using modeling simulation, in relation to PON1 lactonase activity” (Bioorg Med Chem, 2008) one finds Activity data, which are given here for one compound.

The chains behind the UniProt entries cited, without tags or fusion partners. Where a name states a change or a piece, a line headed by the entry shows the natural chain unless it says otherwise.
UniProt P27169: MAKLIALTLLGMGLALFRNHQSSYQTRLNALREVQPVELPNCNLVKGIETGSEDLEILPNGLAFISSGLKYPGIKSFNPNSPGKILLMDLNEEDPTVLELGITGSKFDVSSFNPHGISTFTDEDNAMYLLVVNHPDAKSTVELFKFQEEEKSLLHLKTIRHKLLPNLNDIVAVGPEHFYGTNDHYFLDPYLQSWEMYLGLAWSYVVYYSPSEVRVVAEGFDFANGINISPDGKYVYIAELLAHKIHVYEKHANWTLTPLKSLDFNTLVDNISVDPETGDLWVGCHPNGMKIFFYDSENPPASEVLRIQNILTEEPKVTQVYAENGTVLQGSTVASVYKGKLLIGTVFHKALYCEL

In this assay the target is Serum paraoxonase/arylesterase 1 (Homo sapiens) (UniProt P27169). As to the kind of experiment: Activity at human recombinant PON1 assessed as hydrolysis of lactone ring at 1 mM by Ellman's method. (In general: DTNB colorimetry detects thiols as they appear.)

For the compound `O=C1CCc2ccccc2O1`, the Activity is 13 µmol/min/mg.
